# Bioassay records as filed in PubChem BioAssay.
# The list is not random: actives were taken first. Their share in the collection is about 1.1%.
# miR-21 reporter = raises the signal of a miR-21 reporter | HeLa miR-21 FLuc reporter, luciferase, 48 h | Potency, µM (doses to about 38.3 µM), for the others: at the highest dose reporter change, positive = more light | 340,000 tested, under 10 active | AID 2288; active = well fitted rising curve with a large enough effect; inconclusive = small, poorly fitted or top-dose-only effect; inactive = no such curve, though single readings can be large or run the other way;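 also: % of control where 0% means no effect; miR-21 action dims this reporter so a rising signal means less miR-21 action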
#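 HeLa cells stably expressing CMV-driven firefly luciferase with a downstream miR-21 binding sequence, endogenously expressing miR-21, were treated with titrations (up to about 40uM final) for 48 hours at 37 degree Celsius. Luciferase luminescence was read after lysis.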
# p53 reactivation = re-activators of mutant p53 | H1299 p53-A138V BP100-luciferase reporter, luminescence, 24 h | Potency, µM (titrated, usually from 92.2 µM), inactives show top-dose activity change, positive = activation, hits mostly activators | hit rate 0.063% among 320,000; note: potency is the fitted concentration of half-maximal effect; % of control where 0% means no effect; nearly all actives have a fitted effect of over 45% in size
#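 H1299 (p53-null), stable ts p53-A138V + BP100-Luc; 1000 cells/well, Opti-MEM/10% FBS; cpd 4 pt, 1:5; 24 h, 37 deg C, 5% CO2; detection reagent 10 min RT; luminescence.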
# Anesthetic bind = binds horse apoferritin like a general anesthetic; P02791; apoferritin/1-aminoanthracene competitive binding, fluorescence; Potency, µM (series often up to 77.5 µM), for the others: at the highest dose activity change, negative = displacement, most hits filed as inhibitors; hit rate 0.074% among 350,000; note: potency is the fitted concentration of half-maximal effect; % is set by controls: 0 for no effect and ±100 for the full control effect; nearly all actives have a fitted effect of over 20% in size
#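 Steps: apoferritin (10 uM) was premixed with half-saturated 1-AMA in PBS, compounds were pin-transferred, plates stood 10 min at room temperature, fluorescence was read at 380/535 nm, and curves were fitted with a Hill equation.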
# BRCA1 expr act = activators of BRCA1 expression; hit rate 1.1% among 380,000; Potency, µM (series often up to 46.1 µM), inactives show top-dose activation, usual class: activators; AID 624202; MCF7-BRCA1-FFLuc reporter, luminescence, 48 h; response scale: scaled: vehicle 0%, 10 µM genistein 100%; note: potency is the fitted concentration of half-maximal effect; nearly all actives have a fitted effect of over 80% in size
#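 Luminescence from a BRCA1-driven firefly luciferase in MCF7 cells was read after 48 h compound exposure at 37 C. Data normalized against DMSO and a 10microM genistein activation control, then curve-fitted across the titration.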
# Starred values were filed as active, the others as inactive; ? = inconclusive; . = no result. Unless noted, calls come from the whole dose curve; as a rule, active = well fitted curve in the direction sought with a large enough effect; inconclusive = small, poorly fitted or top-dose-only effect, or another doubt; inactive = no such curve, though single readings can be large; an effect the other way counts as inactive or inconclusive.
no. | SMILES | miR-21 reporter | p53 reactivation
1 | O=c1c2ccccc2nc2c3ccccc3cnn12 | -48.6% | 6.8%
2 | O=C(OCC(=O)N1CCOCC1)c1ccccc1Cc1ccccc1 | -67.6% | ?
3 | O=c1c2c3c(sc2ncn1/N=C/c1ccccc1)CCCC3 | -34.6% | 17.4%
4 | CCOC(=O)N1CCc2c(sc3ncn(Cc4ccc(F)cc4)c(=O)c23)C1 | 0.6% | -5.8%
5 | O=c1c2c3c(sc2ncn1Cc1ccc(F)cc1)CCC3 | -9.7% | 3.1%
6 | COC(=O)[C@]12CCCCC=C1N(CCC1=CCCCC1)C(=O)[C@H](CC(=O)N1CCC(c3ccccc3)CC1)C2 | . | .
7 | COc1ccc(OC)c(NC(=O)CCc2c(C)nn(-c3ccc(N4CCCC4)nn3)c2C)c1 | 27.5% | .
8 | O=C1/C(=C/c2ccco2)CCc2ccccc21 | -80.2% | ?

no. | Anesthetic bind | BRCA1 expr act
1 | -4.9% | 7.94µM*
2 | 6.6% | 2µM*
3 | ? | 20µM*
4 | -4.6% | -16.9%
5 | 25.1µM* | 1.2%
6 | . | -23.6%
7 | ? | .
8 | -12.9% | 35.9%

# Later entries
no. | SMILES | miR-21 reporter | p53 reactivation
9 | COc1ccc2c(c1)CC/C(=C/c1ccco1)C2=O | -69.0% | ?
10 | CCOC(=O)c1sc(N)nc1C(F)(F)F | . | .
11 | C#CC(C)(C)NC(=O)c1ccc(-c2ccccc2F)cc1 | -64.5% | 0.5%
12 | CCCCN(C)C(=O)c1nc2ccccn2c1CN1CCN(C(=O)c2cccs2)CC1 | -7.4% | -0.6%
13 | Cc1c(NC(=O)Cc2ccc(Cl)cc2)cccc1-c1nc2cccnc2s1 | 0.6% | .
14 | COc1cc(CNCc2ccccn2)ccc1OCc1ccc(Cl)c(Cl)c1 | -42.7% | 10.8%
15 | COc1cc(CNCc2ccccn2)ccc1OCc1ccc(Cl)cc1Cl | -4.6% | -0.7%
16 | COc1cc(CNCc2ccccn2)ccc1OCC(N)=O | -10.3% | -8.2%

no. | Anesthetic bind | BRCA1 expr act
9 | 1.0% | 3.55µM*
10 | . | -46.6%
11 | 3.3% | 12.6µM*
12 | -8.1% | -22.0%
13 | ? | .
14 | ? | 20µM*
15 | 20µM* | -32.9%
16 | -2.9% | 5.8%

# Other results.
no. | SMILES | miR-21 reporter | p53 reactivation
17 | Cc1ccc2c(c1)N(C(=O)NCc1ccccc1)CCO2 | -0.5% | .
18 | CCN1C(=NCCOC)N[C@@H](c2cccs2)C(C(=O)OC)=C1C | 2.6% | 8.4%
19 | COC(=O)c1ccc2c(=O)n(CCCCCC(=O)N3CCN(c4cc(Cl)ccc4C)CC3)c(=O)[nH]c2c1 | ? | .
20 | COCC(=O)n1nc(-c2ccccc2)nc1NCc1cccs1 | -59.9% | 15.8%
21 | COc1cc(C=O)ccc1Oc1ccc(S(=O)(=O)N2CCOCC2)cc1[N+](=O)[O-] | . | 16.5%
22 | CCn1cc(C(=O)NCCc2ccc(C)cc2)c(=O)c2cc(S(=O)(=O)N3CCC(C)CC3)ccc21 | -3.4% | .
23 | c1csc(-c2ccc3ccccc3n2)c1 | -43.8% | 16.6%
24 | Cc1ccc(-c2cc3ccccc3nc2N)cc1 | -28.6% | ?

no. | Anesthetic bind | BRCA1 expr act
17 | 5.2% | .
18 | 1.9% | -0.7%
19 | -8.9% | .
20 | -7.2% | 10µM*
21 | . | -15.7%
22 | -6.2% | 0.0%
23 | ? | 7.08µM*
24 | -14.6% | 10µM*

# Going on with the list.
no. | SMILES | miR-21 reporter | p53 reactivation
25 | Cc1ccccc1S(=O)(=O)c1cc2ccccc2nc1N | -7.1% | -5.1%
26 | Nc1nc2ccccc2cc1-c1cccs1 | -55.6% | ?
27 | N#Cc1cc2ccccc2nc1N | 0.6% | 2.7%
28 | c1csc(-c2nc3ccccc3s2)c1 | -69.4% | 24.8%
29 | Nc1nc(-c2cccs2)cs1 | -43.7% | 8.7%
30 | CCC(C(=O)N1CCN(c2cc(Cl)ccc2C)CC1)n1nc(C)n2c(cc3occc32)c1=O (stereo unspecified) | ? | .
31 | CCCSc1nsc(NC(=O)CCC)n1 | -26.8% | 25.5%
32 | Cc1cc(C)c(C2=CC(=O)C[C@H](c3ccc4c(c3)OCO4)C2)c(C)c1 | . | -1.5%

no. | Anesthetic bind | BRCA1 expr act
25 | 1.1% | -25.2%
26 | -9.2% | 3.16µM*
27 | 12.8% | 14.1%
28 | -4.0% | 7.94µM*
29 | ? | 76.9%
30 | -14.9% | -38.6%
31 | -7.7% | 1.41µM*
32 | . | -6.7%

# A draw from above in order of length of the SMILES, high to low:
no. | SMILES | miR-21 reporter | p53 reactivation
30 | CCC(C(=O)N1CCN(c2cc(Cl)ccc2C)CC1)n1nc(C)n2c(cc3occc32)c1=O (stereo unspecified) | ? | .
25 | Cc1ccccc1S(=O)(=O)c1cc2ccccc2nc1N | -7.1% | -5.1%
28 | c1csc(-c2nc3ccccc3s2)c1 | -69.4% | 24.8%
31 | CCCSc1nsc(NC(=O)CCC)n1 | -26.8% | 25.5%
27 | N#Cc1cc2ccccc2nc1N | 0.6% | 2.7%

no. | Anesthetic bind | BRCA1 expr act
30 | -14.9% | -38.6%
25 | 1.1% | -25.2%
28 | -4.0% | 7.94µM*
31 | -7.7% | 1.41µM*
27 | 12.8% | 14.1%

# More records.
no. | SMILES | miR-21 reporter | p53 reactivation
33 | O=S(=O)(Nc1cccc(-c2ccc(N3CCCCCC3)nn2)c1)c1ccccc1Cl | -31.1% | 10.0%
34 | O=S(=O)(Nc1cccc(-c2ccc(N3CCCCCC3)nn2)c1)c1ccccc1F | -58.6% | ?
35 | O=[N+]([O-])c1ccc(OCCCOc2cccc3cccnc23)cc1 | -11.2% | .
36 | O=[N+]([O-])c1ccc(COc2cccc3cccnc23)cc1 | -54.5% | 15.8%
37 | Cc1ccc(OCc2ccccc2C)c([N+](=O)[O-])n1 | -47.1% | 20.8%
38 | Cc1ccc(OCC(=O)Nc2ccc3c(c2)OC(F)(F)O3)c([N+](=O)[O-])n1 | -11.4% | -2.1%
39 | COc1ccc(CNC(=O)COc2ccc(C)nc2[N+](=O)[O-])cc1 | -17.3% | -1.3%
40 | Cc1ccc(OCC(=O)Nc2ccc(C)c(F)c2)c([N+](=O)[O-])n1 | . | ?

no. | Anesthetic bind | BRCA1 expr act
33 | -6.4% | 74.5%
34 | -5.6% | 12.6µM*
35 | -19.9% | 12.8%
36 | -13.7% | 11.2µM*
37 | ? | 28.7%
38 | -6.4% | -20.5%
39 | -10.0% | -5.6%
40 | . | 6.31µM*

# The list goes on.
no. | SMILES | miR-21 reporter | p53 reactivation
41 | Cc1ccc(OCc2ccc([N+](=O)[O-])cc2)c([N+](=O)[O-])n1 | -12.0% | -2.8%
42 | Cc1ccc(OCCOc2ccc(Br)cc2)c([N+](=O)[O-])n1 | -76.2% | ?
43 | COCCNC(=O)c1cnc2sc(N3CCC(C)CC3)nn2c1=O | -0.3% | .
44 | CC[C@]1(O)C[C@H]2CN(CCc3c([nH]c4ccccc34)[C@@](C(=O)OC)(c3cc4c(cc3OC)N(C=O)[C@H]3[C@@](O)(C(=O)OC)[C@H](OC(C)=O)[C@]5(CC)C=CCN6CC[C@]43[C@@H]65)C2)C1 | . | .
45 | Cc1sc2ncn(CC(=O)N(C)c3ccc(Br)cc3)c(=O)c2c1S(=O)(=O)N1CCC(C)CC1 | 10.9% | .
46 | Cc1ccccc1OCC(O)COc1ccccc1C | . | .
47 | Cc1cnc(-c2nnc(N(C)C(=O)C3CCOC3)s2)cn1 (stereo unspecified) | -26.5% | ?
48 | O=C(NC(=S)Nc1ccc2ncccc2c1)c1ccccc1 | -66.4% | 5.3%

no. | Anesthetic bind | BRCA1 expr act
41 | -8.6% | 5.01µM*
42 | 3.9% | 3.16µM*
43 | 12.2% | .
44 | . | -58.3%
45 | -8.1% | -0.7%
46 | . | 34.0%
47 | 3.9% | 7.94µM*
48 | -4.7% | ?

# Going on with the list:
no. | SMILES | miR-21 reporter | p53 reactivation
49 | O=C(Nc1ccc2c(c1)OCCO2)c1ccc(Cl)c([N+](=O)[O-])c1 | -16.7% | ?
50 | O=C(Nc1ncccc1Cl)c1ccc2c(c1)OCCO2 | -42.0% | 14.9%
51 | O=C(Nc1ccc2c(c1)OCCO2)c1cccc(S(=O)(=O)N2CCOCC2)c1 | -45.7% | 14.7%
52 | O=C(NC(=S)Nc1ccc2nc[nH]c2c1)c1ccccc1 | -47.0% | ?
53 | O=C(Nc1ccccn1)c1ccc2c(c1)OCCO2 | 2.2% | 13.4%
54 | O=C(Nc1ccc2c(c1)OCCO2)c1ccc(Cl)c(Cl)c1 | -30.3% | 15.7%
55 | COc1cccc(C(=O)Nc2c(C(=O)N3CCN(c4ccc(F)cc4)CC3)oc3ccccc23)c1 | 2.3% | .
56 | Cc1ccc(S(=O)(=O)C(CNC(=O)COc2ccc(Cl)cc2)c2ccco2)cc1 (stereo unspecified) | 0.1% | .
57 | COc1ccccc1CNc1ccc(-c2nc(-c3cccc(C)c3)no2)cc1[N+](=O)[O-] | -28.4% | .
58 | C#CCN(C[C@H]1[C@H](OC(=O)NC2CCCC2)[C@H](OC(=O)NC2CCCC2)C[C@@H](C(=O)OC)[C@H]1C(=O)OC)S(=O)(=O)c1ccc(C)cc1 | . | .
59 | O=C(Nc1ccc2c(c1)OCO2)c1ccc2nc[nH]c2c1 | -51.8% | 13.2%

no. | Anesthetic bind | BRCA1 expr act
49 | -10.8% | 55.7%
50 | -6.0% | 8.91µM*
51 | -16.3% | 10µM*
52 | -5.8% | 3.98µM*
53 | -3.6% | -19.1%
54 | -9.5% | 12.6µM*
55 | -4.8% | 1.4%
56 | -2.9% | .
57 | -6.9% | 0.0%
58 | . | -29.1%
59 | -21.8% | 5.62µM*
